For ten compounds, IC50 results are on record in publication PMC6934599, “Phenoxyethyl Piperidine/Morpholine Derivatives as PAS and CAS Inhibitors of Cholinesterases: Insights for Future Drug Design” (Scientific Reports, 2019).

The chains behind the UniProt entries cited, without tags or fusion partners.
UniProt P81908, whole entry: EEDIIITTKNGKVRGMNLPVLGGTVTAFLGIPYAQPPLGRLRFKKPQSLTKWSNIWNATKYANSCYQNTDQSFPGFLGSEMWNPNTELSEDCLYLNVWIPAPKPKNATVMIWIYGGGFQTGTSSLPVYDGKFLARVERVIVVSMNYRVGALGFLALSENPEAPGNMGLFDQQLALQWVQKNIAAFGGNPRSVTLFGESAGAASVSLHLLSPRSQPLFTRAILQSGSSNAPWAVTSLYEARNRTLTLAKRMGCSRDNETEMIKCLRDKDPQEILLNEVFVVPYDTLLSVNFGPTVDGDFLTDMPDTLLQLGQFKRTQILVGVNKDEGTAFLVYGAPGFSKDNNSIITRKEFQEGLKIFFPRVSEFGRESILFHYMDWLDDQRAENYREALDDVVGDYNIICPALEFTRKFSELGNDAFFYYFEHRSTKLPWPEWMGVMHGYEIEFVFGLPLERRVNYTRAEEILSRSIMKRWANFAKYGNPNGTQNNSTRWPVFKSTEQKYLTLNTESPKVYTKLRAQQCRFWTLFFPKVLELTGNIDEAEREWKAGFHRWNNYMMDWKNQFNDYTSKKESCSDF

Each structure is given as a SMILES string. Where only a bound is given, the exact number is not on record here.

In this assay the target is BuChE (E.C.3.1.1.8, from equine serum) (Equus caballus, UniProt P81908). Particulars: read-out: eqBuChE IC50.
What is called IC50 is the concentration that gives 50% inhibition. As to `CC1(C)CC(=O)C2=C(C1)OC(N)=C(C#N)C2c1ccc(OCCN2CCOCC2)cc1` (stereo not shown), the half-inhibitory concentration (IC50) is above 100 µM.

As for `N#CC1=C(N)OC2=C(C(=O)CCC2)C1c1ccc(OCCN2CCOCC2)cc1` (stereo not shown), the concentration for half-maximal inhibition (IC50) amounted to 68.9 µM.

For the compound `N#CC1=C(N)Oc2c(c(=O)oc3ccccc23)C1c1ccc(OCCN2CCCCC2)cc1` (stereo not shown), the half-inhibitory concentration (IC50) was 61.7 µM.

As to `N#CC1=C(N)Oc2c(c(=O)oc3ccccc23)C1c1ccc(OCCN2CCOCC2)cc1` (stereo not shown), the IC50 is above 100 µM.

For `O=Cc1ccc(OCCN2CCCCC2)cc1`, the IC50 came out at 71.3 µM.

For the compound `O=Cc1ccc(OCCN2CCOCC2)cc1` [3b, 4-(2-morpholinoethoxy)benzaldehyde], the IC50 is above 100 µM.

For the compound `N#CC(C#N)=Cc1ccc(OCCN2CCOCC2)cc1` [5b], the IC50 was above 100 µM.

On to `COC(=O)/C(C#N)=C/c1ccc(OCCN2CCCCC2)cc1` [5c], for which the IC50 was above 100 µM.

On to `Cc1cc2c(c(=O)o1)C(c1ccc(OCCN3CCCCC3)cc1)C(C#N)=C(N)O2` (stereo not shown) [7e, 2-Amino-7-methyl-5-oxo-4-(4-(2-(piperidin-1-yl)ethoxy)phenyl)-4H,5H-pyrano[4,3-b]pyran-3-carbonitrile], for which the IC50 was above 100 µM.

As to `Cc1cc2c(c(=O)o1)C(c1ccc(OCCN3CCOCC3)cc1)C(C#N)=C(N)O2` (stereo not shown) [7f, 2-Amino-7-methyl-4-(4-(2-morpholinoethoxy)phenyl)-5-oxo-4H,5H-pyrano[4,3-b]pyran-3-carbonitrile], the IC50 was above 100 µM.
